# Experimental data as given in patent US20200231670A1 (AGENSYS, published 2020).
# Amino acid sequences for entries named in this document (tags omitted). Residues count along the entry.
# UniProt Q9NQS3, 58-549 limits assumed, stated change not applied: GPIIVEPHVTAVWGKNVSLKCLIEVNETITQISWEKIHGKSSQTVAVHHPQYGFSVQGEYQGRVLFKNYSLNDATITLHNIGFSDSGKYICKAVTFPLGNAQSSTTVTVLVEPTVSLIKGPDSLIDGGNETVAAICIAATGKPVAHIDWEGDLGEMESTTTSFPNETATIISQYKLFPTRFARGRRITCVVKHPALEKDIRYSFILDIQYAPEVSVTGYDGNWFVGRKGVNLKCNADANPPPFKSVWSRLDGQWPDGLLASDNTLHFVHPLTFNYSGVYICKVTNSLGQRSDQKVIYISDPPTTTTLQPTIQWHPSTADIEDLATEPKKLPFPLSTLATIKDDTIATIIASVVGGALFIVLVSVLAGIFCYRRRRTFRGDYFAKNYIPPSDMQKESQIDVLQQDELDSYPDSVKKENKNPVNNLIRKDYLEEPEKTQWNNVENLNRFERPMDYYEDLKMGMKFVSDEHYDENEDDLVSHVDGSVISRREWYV
# B1: M22-321b41.1 anti-Nectin-4 mouse monoclonal antibody (antibody, mouse IgG2a, kappa, V domains shown)
# VH: QVQLQQSGAELARPGASVKLSCKASGYTFTTYWMQWVKQRPGQGLEWIGSIYPGDGDTRYTQKFKGKATLTADKSSSTAYIQLSTLASEDSAVYYCAREYYGLDYWGQGTTLTVSS
# VL: DIVMTQAAFSNPVTLGTSASISCRSSKSLLHSNGITYLYWYLQKPGQSPQLLIYHMSNLASGVPDRFTSSGSGTDFTLRISRVEAEDVGVYYCAQNLELPFTFGGGTKLETKR
# notes: Mouse IgG2a kappa from hybridoma M22-321b41.1 (ATCC PTA-124245), protein A purified; also called mAb M22-321b41.1; M22-321b1.1
# Target: T1, Nectin-3 over-expressed by engineered Rat1(E) cells (UniProt Q9NQS3 58-549, limits assumed)
# T1 construct: whole, on cells; also called Rat1(E)-Nectin-3; Rat1(E) Nectin3
# Assay: IHC, FFPE Rat1(E) cells expressing Nectin-3
# Procedure: IHC staining was performed according to the following exemplary protocols. Briefly, an indirect IHC technique was used to detect Nectin-4 in the IHC assay. The samples were fixed in 10% buffered neutral formalin, processed and embedded into paraffin wax, and prepared as 4 μm tissue sections. After deparaffinization and re-hydration, sections were treated for antigen retrieval. The antigen epitopes in Nectin-4 were retrieved, for example, by application of heat to the tissue sections in an aqueous medium, commonly referred to as a Heat-Induced Epitope Retrieval (HIER) procedure. […] The tissue sections bound with primary antibodies were washed and detected with an enzyme-labeled, e.g. peroxidase-labeled, secondary antibody. […] The stained tissue sections were then scanned, imaged, and evaluated with light microscopy, for example, using an Aperio ScanScope CS (Aperio, Vista, Calif.).
# To assess the level of Nectin-4 expression in the tissue sections by the level of antibody staining, stained tissue sections were assessed, evaluated, categorized, and recorded into different categories or scores according to the intensity of the IHC staining and cancer cell positivity ratio. […] Lack of specific staining was recorded as negative (“0” or interchangeably with as “−”). […]
binder,measurement,value
B1,binding result,no binding (tested: 2.5 µg/mL)
